# AlphaSeq binding of Ab-14 heavy chain variants to a spike HR2 peptide

Data: MIT Lincoln Laboratory AlphaSeq set, Li et al. 2023, doi:10.1038/s41467-023-39022-2, as distributed in FLAb.

All variants were tested on one target, the spike HR2 peptide PDVDLGDISGINAS (SARS-CoV-2).

Parent: Ab-14, a human scFv built as VH, three GGGGS repeats, VL. Only the CDRs of the heavy chain vary.
VH: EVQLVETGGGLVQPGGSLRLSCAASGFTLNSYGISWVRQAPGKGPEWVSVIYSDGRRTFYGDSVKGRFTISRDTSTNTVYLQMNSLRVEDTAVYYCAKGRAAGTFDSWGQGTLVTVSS
VL: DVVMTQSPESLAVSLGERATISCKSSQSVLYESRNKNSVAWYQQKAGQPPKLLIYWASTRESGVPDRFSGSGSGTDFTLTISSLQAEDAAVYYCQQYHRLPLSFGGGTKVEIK

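The variants were designed computationally from a first round of random CDR variants and then made and measured. Several design methods are mixed in this list. AlphaSeq pools MATa yeast showing the antibodies with MATalpha yeast showing the peptide. Binding brings cells together so that they mate, and sequencing counts the barcode pairs among the diploids. A regression on co-assayed BCL2-family reference pairs converts the normalised counts of each replicate to an apparent Kd. Each pool was mated in six replicate cultures.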

Variants are written as CDR1, CDR2 and CDR3 of the heavy chain (limits as in the source). Parent: GFTLNSYGIS, VIYSDGRRTFYGDSVK, GRAAGTFDS.
Scale: log10 of Kd in nM, estimated from mating counts; low values are strong binders.
Averages over replicates are reported, and they cover detected replicates only.
"not detected" means that the variant was in the library but no mating with the target was seen in any replicate; the authors take this as a sign of poor binding, and no number exists.
The list is sorted by this average, lowest first, undetected variants last.

| log10 Kd (nM), mean | detected | empty controls | CDR-H1 | CDR-H2 | CDR-H3 |
|---|---|---|---|---|---|
| -0.61 | 6 of 6 | 1 of 18 | GFNLNEYGIS | VIYADGMRTFYADSVK | GQQAGTFDM |
| -0.61 | 6 of 6 | 0 of 18 | GFDLNEYGIS | VIYADGKRTAYADNVK | GQVAGTFDV |
| -0.57 | 6 of 6 | 1 of 18 | GFDLNEYGIS | VIYADGLRTFYTDSVK | GEHAGTFDV |
| -0.46 | 6 of 6 | 0 of 18 | GFDLNEYGIS | VIYADGMRTAYADDVK | GDNAGTFDV |
| -0.45 | 6 of 6 | 0 of 18 | GFDLNEYGIS | VIYADGRRTAYSDSVK | GGNAGTFDM |
| -0.38 | 6 of 6 | 0 of 18 | GFDLNEYGIS | VIYADGVRTSYADDVK | GNQAGTFDV |
| -0.35 | 6 of 6 | 1 of 18 | GFDLDEYGIS | VIYADGKRTAYADSVK | GQVAGTFDT |
| -0.26 | 6 of 6 | 0 of 18 | GFDLNEYGIS | VIYADGMRTAYSDSVK | GNNAGTFDI |
| 0.05 | 6 of 6 | 0 of 18 | GFDLNSYGIS | VIYSDGRRTFYADEVK | GRQAGTFDS |
| 0.15 | 6 of 6 | 1 of 18 | GFDLDEYGIS | VIYADGVRTAYADSVK | GNQAGTFDV |
| 0.18 | 6 of 6 | 0 of 18 | GFSLNSYGIS | VIYSDGRRTFYGDNVK | GVNAGTFDS |
| 0.22 | 6 of 6 | 0 of 18 | GFDLDEYGIS | VIYADGMRTAYADNVK | GEVAGTFDI |
| 0.41 | 6 of 6 | 0 of 18 | GFQLNEYGIS | VIYSDGRRTFYGDSVK | GRTAGTFDE |
| 0.48 | 2 of 6 | 0 of 18 | GFDLNEYGIS | VIYADGKRTAYIDSVK | GEAAGTFDS |
| 0.67 | 4 of 6 | 0 of 18 | GFTLNSYGIS | VIYSDGRRTFYSDSVK | GSAAGTFDT |
| 0.68 | 1 of 6 | 0 of 18 | GFDLNSYGIS | VIYSDGRRTFYVDSVK | GKIAGTFDS |
| 0.72 | 5 of 6 | 0 of 18 | GFELNSYGIS | VIYSDGRRTFYRDSVK | GQTAGTFDS |
| 0.77 | 6 of 6 | 0 of 18 | GFQLNEYGIS | VIYSDGRRTFYGDSVK | GRAAGTFDE |
| 0.79 | 6 of 6 | 2 of 18 | GFDLNSYGIS | VIYSDGRRTFYQDSVK | GQAAGTFDD |
| 0.82 | 6 of 6 | 0 of 18 | GFDLNEYGIS | VIYADGRRTFYADSVK | GNQAGTFIT |
| 0.91 | 6 of 6 | 0 of 18 | GFSLNEYGIS | VIYSDGRRTFYGDSVK | GRAAGTLDS |
| 1.11 | 5 of 6 | 0 of 18 | GFELNEYGIS | VIYSDGRRTFYTDHVK | GRFAGTFDS |
| 1.13 | 6 of 6 | 0 of 18 | GFDLNEYGIS | VIYSDGRRTFYGDQVK | GRAAGTFDS |
| 1.21 | 5 of 6 | 0 of 18 | GFQLNSYGIS | VIYSDGRRTFYADQVK | GQAAGTFDS |
| 1.37 | 3 of 6 | 0 of 18 | GFTLNQYGIS | VIYSDGRRTFYADSVK | GRAAGKFDS |
| 1.57 | 1 of 6 | 0 of 18 | GFYLNSYGIS | VIYSDGRRTFYDDSVK | GRLAGTFDS |
| 1.84 | 1 of 6 | 0 of 18 | GFTLNSYGIS | VIYSDGRRQFYGDSVK | GRAAGTFDE |
| 2.02 | 5 of 6 | 1 of 18 | GFQLNSYGIS | VIYSDGRRTFYQDSVK | GKAAGTFDS |
| 2.07 | 1 of 6 | 0 of 18 | GLTMNSYGIS | VIYSDGQRTFYGDSVK | GRAAGTFLS |
| 2.66 | 1 of 6 | 0 of 18 | GFTLLSYGIS | VIYSDGRRTFYQDSVK | GRAAGTFES |
| 2.77 | 1 of 6 | 0 of 18 | GFTLNDYGIS | VIYSDGRRTQYIDSVK | GRAAGTFVS |
| 2.95 | 2 of 6 | 0 of 18 | GFNLESYGIS | VIYADGKRSSVSNSVK | GQLGNAFDM |
| not detected | 0 of 6 | 0 of 18 | GFDLNEYGIS | VIYADGKRMAYANKVK | GLMAGTVID |
| not detected | 0 of 12 | 1 of 36 | GFTLNDYGIS | VIYSDGRRTFYGDSVK | GRAAGTFWS |
| not detected | 0 of 6 | 0 of 18 | GFDIEEYGIS | VIYADGIRQAYKDDVK | GMNVGRFSV |
| not detected | 0 of 6 | 0 of 18 | GFTLNSYGIS | VIYSDGKRTFYSDSVK | GEAAGTFDR |
| not detected | 0 of 6 | 0 of 18 | GFSLNSYGIS | VIYSDGRRTFYGDDVK | GRDAGTPDS |
| not detected | 0 of 6 | 0 of 18 | GFDLEEMGVS | VIYHDGIRTAYKQKVK | GQFAGTFDL |
| not detected | 0 of 6 | 1 of 18 | GFTLDSYGTS | VSYSDGRRTFYGDSVK | GRAAGTALP |
| not detected | 0 of 6 | 2 of 18 | GFTLNSYGIS | VIYSDGRRTFYKDSVK | GKEAGTFDT |
| not detected | 0 of 6 | 0 of 18 | GFTLNEYGIS | VIYSDGRRTFYGDSVK | TRAAGTFDS |
| not detected | 0 of 6 | 0 of 18 | GFTLNSYGIS | VIYSDTRRTFYTDSVK | GRAAGTFDS |
| not detected | 0 of 6 | 0 of 18 | GQTLSSYGIS | VIYSDGRRTFYHGSVK | GRAAGDFDS |
| not detected | 0 of 6 | 2 of 18 | GYDLDDYGIS | VIYADGKRTSYAEDVK | GNIGGSLSN |
| not detected | 0 of 6 | 0 of 18 | GFTLNSYGIS | VIYSDGRRTAYGPSVK | GRAAGTFDS |
| not detected | 0 of 6 | 0 of 18 | GQDLAEYGIS | VIYADGKRTYYAQDVK | GTNVGQGGF |
| not detected | 0 of 6 | 0 of 18 | GFTLNSYGVS | VIYSDGHRTFYSDSVK | GRSMGTFDS |
| not detected | 0 of 6 | 0 of 18 | GFTLNEYGIS | VIYSDGRRTFYGDSVK | GRAAGTFMF |

Top 5 of the variants detected in all replicates, tightest first:

CDR-H1,CDR-H2,CDR-H3,"log10 Kd (nM), mean",detected,empty controls
GFNLNEYGIS,VIYADGMRTFYADSVK,GQQAGTFDM,-0.61,6 of 6,1 of 18
GFDLNEYGIS,VIYADGKRTAYADNVK,GQVAGTFDV,-0.61,6 of 6,0 of 18
GFDLNEYGIS,VIYADGLRTFYTDSVK,GEHAGTFDV,-0.57,6 of 6,1 of 18
GFDLNEYGIS,VIYADGMRTAYADDVK,GDNAGTFDV,-0.46,6 of 6,0 of 18
GFDLNEYGIS,VIYADGRRTAYSDSVK,GGNAGTFDM,-0.45,6 of 6,0 of 18

Three control strains display no target. For all heavy chain designs, 1% of the pairings with them gave a signal, with a median of 2.08 and one signal in twenty below 0.84, so weak values seen in few replicates may be background. For each scFv, signals with the empty controls are counted beside the result.
A sequence that the file lists under several names has all its replicates pooled.
In the paper, a design with two or fewer of six values counts as a poor binder.
The range of this assay differs from that of the first round, and the authors advise against merging the two.